# Publication PMC12436592 (Nature Communications, 2025)
# Chains of the proteins cited; added tags and fusions are not shown.
# UniProt Q99572, whole entry: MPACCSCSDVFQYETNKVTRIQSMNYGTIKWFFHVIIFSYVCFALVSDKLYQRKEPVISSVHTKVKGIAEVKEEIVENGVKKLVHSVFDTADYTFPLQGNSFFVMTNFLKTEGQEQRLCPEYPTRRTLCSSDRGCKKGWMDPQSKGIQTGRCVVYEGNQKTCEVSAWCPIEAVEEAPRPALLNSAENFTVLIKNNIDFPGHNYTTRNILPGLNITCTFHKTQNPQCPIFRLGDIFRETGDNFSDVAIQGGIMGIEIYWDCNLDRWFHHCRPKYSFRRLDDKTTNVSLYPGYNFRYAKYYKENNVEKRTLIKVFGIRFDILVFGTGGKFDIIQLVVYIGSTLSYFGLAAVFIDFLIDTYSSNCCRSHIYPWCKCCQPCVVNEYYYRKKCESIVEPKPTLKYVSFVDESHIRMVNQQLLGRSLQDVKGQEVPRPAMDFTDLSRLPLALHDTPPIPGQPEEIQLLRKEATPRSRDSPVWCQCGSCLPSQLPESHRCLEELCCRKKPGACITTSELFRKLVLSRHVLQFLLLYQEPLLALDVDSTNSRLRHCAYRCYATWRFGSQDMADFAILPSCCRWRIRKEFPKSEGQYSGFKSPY
# What was measured:
# hP2X7R [1] = molecular target: T1, hP2X7R (Homo sapiens, UniProt Q99572); test: Ethidium bromide accumulation in hP2X7R-expressing HEK293 cells
# hP2X7R [2] = molecular target: T1, hP2X7R; conditions: ethidium bromide accumulation, reported previously ref 45; cited from earlier work
compound,measurement,setting,value
CC12CC3CC1(C)CC3(C(=O)NNc1ccccc1Cl)C2,increase in potency compared to UB-ALT-P30,hP2X7R [1]; Table 1 IC50 values,two-fold increase in potency
same,ΔΔGexp,"hP2X7R [1]; relative to UB-ALT-P30, from experimental pIC50 values, T = 298 K",-0.59 ± 0.37 kcal/mol
same,IC50,hP2X7R [2],0.018 µM
